# Reference: PubChem BioAssay AID1259373 (The Scripps Research Institute Molecular Screening Center, 2018)
# This is a selection; strong and weak results do not stand in their true shares. Active and inactive are the calls of the source. How the calls were made is not given here.
# Assay: AlphaScreen optical interference compounds, dose response, counter-screen, biochemical, HTS (AID 1259373)
# Details: AlphaScreen optical interference counterscreen, cell-free
row,Structure (SMILES),IC50
1,Cc1ccc([N+](=O)[O-])c2no[n+]([O-])c12,inactive
2,CC(C)OP(=O)(OC(C)C)C(=O)c1ccco1,inactive: > 7.35 µM
